Data on six compounds can be found in ChEMBL document CHEMBL5725263, “Pyrrolone or pyrrolidinone melanin concentrating hormone receptor-1 antagonists” (2016).

The term Ki denotes the equilibrium dissociation constant of an inhibitor or competing ligand from its target.

The test in a line: Radioligand Binding Assay: An in vitro binding assay was used to determine the compound Ki value or ability to antagonize binding of a peptide agonist to the human melanin concentrating hormone receptor (MCHR1). Membranes from stably transfected HEK-293 cells expressing a mutated (E4Q, A5T) hMCHR1 receptor were prepared by dounce homogenization and differential centrifugation. Binding experiments were carried out with 0.5-1.0 ug of membrane protein incubated in a total of 0.2 mL in 25 mM HEPES (pH 7.4) with 10 mM MgCl2, 2 mM EGTA, and 0.1% BSA (Binding Buffer) for 90 min. For competition binding assays, reactions were carried out in the presence of with 0.06-0.1 nM [Phe13, [125I]Tyr19]-MCH and increasing concentrations of unlabeled test molecules. Reactions were terminated by rapid vacuum filtration over 96 well-GFC UNIFILTER plates pre-coated with 0.075 mL binding buffer containing 1% BSA, and washed 3 times with 0.4 mL of Phospho-buffered Saline (pH 7.4) containing 0.01% TX-100. Filters were dried, 0.05 mL MicroScint 20 was added to each well and radioactivity was subsequently quantified by scintillation counting on a TOPCOUNT microplate scintillation counter (Packard). Inhibitory constants were determined by nonlinear least squares analysis using a four parameter logistic equation.
Take `CCc1cc(N2CC[C@H](Oc3ccc(C4CC4)cc3)C2=O)ccc1OCCN1CC[C@H](C)C1`: the Ki is 3 nM. Consider `CCc1cc(N2CC[C@H](Oc3ccc(C4CC4)cc3)C2=O)ccc1OCCN1CC[C@@H](C)C1`, for which the Ki came to 2 nM. In the case of `Cc1cc(N2CC[C@H](Oc3ccc(C4CC4)cc3)C2=O)ccc1OCCN1CCC1` it was 0.8 nM.

Take `O=C1C(Oc2ccc(C3CC3)cc2)=CCN1c1ccc(OCCN2CC(O)C2)c(OC(F)F)c1`: the Ki was 0.6 nM. `COc1cc(N2CCC(Oc3ccc(OC(F)(F)F)cc3)C2=O)ccc1OCCn1ccnc1` (stereo unspecified): the Ki worked out at 239 nM.

Turning to `COc1cc(N2CC=C(Oc3ccc(-c4ccccc4)cc3)C2=O)ccc1OCCN1CC(C)(O)C1`, the inhibition constant Ki came out at 0.7 nM.
